One assay has as its target T1, CRF2R (Homo sapiens, UniProt Q13324).
T1 sequence (Q13324 1-411): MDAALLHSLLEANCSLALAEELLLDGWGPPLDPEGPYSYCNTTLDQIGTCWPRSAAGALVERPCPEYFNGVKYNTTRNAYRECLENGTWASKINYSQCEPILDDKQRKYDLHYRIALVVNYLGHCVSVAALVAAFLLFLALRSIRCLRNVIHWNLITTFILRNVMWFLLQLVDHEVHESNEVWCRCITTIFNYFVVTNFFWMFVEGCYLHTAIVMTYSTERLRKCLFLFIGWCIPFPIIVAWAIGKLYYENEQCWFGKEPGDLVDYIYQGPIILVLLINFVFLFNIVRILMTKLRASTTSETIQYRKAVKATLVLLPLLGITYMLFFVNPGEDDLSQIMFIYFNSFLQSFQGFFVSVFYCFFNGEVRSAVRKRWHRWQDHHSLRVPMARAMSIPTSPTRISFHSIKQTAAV
Description: CRF2R agonist activation (EC50 / Emax), called comparative CRF binding. Type of assay: cell-based. The note with it: for Emax: read-out: CRF2R Emax. Put shortly:
(§1)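 Cells expressing full-length human CRF1R or CRF2R were exposed to peptide or vehicle control, and receptor activation was gauged as cAMP induction. cAMP was measured in cell lysates or via a cAMP-responsive element driving a reporter gene such as luciferase, CAT, GFP or alkaline phosphatase.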

For another assay, the target named is T2, CRF1R (Homo sapiens, UniProt P34998).
T2 sequence (P34998 24-415): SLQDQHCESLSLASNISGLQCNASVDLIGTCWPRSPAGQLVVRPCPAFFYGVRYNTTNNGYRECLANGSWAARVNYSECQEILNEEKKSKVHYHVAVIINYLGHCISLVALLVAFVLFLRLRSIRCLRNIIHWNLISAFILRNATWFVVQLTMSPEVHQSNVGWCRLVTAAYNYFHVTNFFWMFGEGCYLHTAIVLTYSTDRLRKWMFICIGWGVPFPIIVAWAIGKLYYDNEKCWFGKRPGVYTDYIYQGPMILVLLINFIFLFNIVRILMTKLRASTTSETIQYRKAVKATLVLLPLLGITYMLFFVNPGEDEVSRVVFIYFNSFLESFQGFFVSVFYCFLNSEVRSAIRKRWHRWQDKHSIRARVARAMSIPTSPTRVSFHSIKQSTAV
Nature of the assay: CRF1R agonist activation (EC50 / Emax), called comparative CRF binding. Format: cell-based. The note with it: for EC50: CRF1R EC50; for Emax: read-out: CRF1R Emax. A digest of the protocol:
as §1

Bounds are passed on as bounds.

For orientation: EC50 means the concentration at which the effect is half-maximal. Read a low EC50 as greater potency. In general, Emax refers to the size of the effect at its maximum, as opposed to the concentration needed. For `CC[C@H](C)[C@H](NC(=O)[C@@H](NC(=O)[C@H](CC(=O)O)NC(=O)[C@H](CC(C)C)NC(=O)[C@H](CC(C)C)NC(=O)[C@H](CC(C)C)NC(=O)[C@H](C)NC(=O)[C@H](CC(N)=O)NC(=O)[C@H](CC(N)=O)NC(=O)[C@H](C)NC(=O)[C@H](C)NC(=O)[C@H](CCC(N)=O)NC(=O)[C@H](CCC(N)=O)NC(=O)[C@H](CCCCN)NC(=O)[C@H](CCC(=O)O)NC(=O)[C@H](CCCCN)NC(=O)[C@H](CCC(=O)O)NC(=O)[C@H](CCC(N)=O)NC(=O)[C@H](CCCCN)NC(=O)[C@H](CCC(=O)O)NC(=O)[C@@H](NC(=O)[C@H](CCC(=O)O)NC(=O)[C@@H](NC(=O)[C@H](CCSC)NC(=O)[C@H](CCCCN)NC(=O)[C@H](CCCNC(=N)N)NC(=O)[C@H](CC(C)C)NC(=O)[C@H](CC(C)C)NC(=O)[C@H](CCC(N)=O)NC(=O)[C@H](Cc1ccccc1)NC(=O)[C@@H]1CCCN1C(=O)[C@H](CC(C)C)NC(=O)[C@H](CC(=O)O)NC(=O)[C@@H](NC(=O)[C@H](CO)NC(=O)[C@@H](NC(=O)[C@@H]1CCCN1C(=O)[C@@H]1CCCN1C(=O)CNC(=O)[C@@H]1CCC(=O)N1)[C@@H](C)CC)[C@@H](C)CC)[C@@H](C)CC)[C@@H](C)CC)[C@@H](C)O)C(N)=O` [compound 251], at CRF2R, the response was half-maximal at 0.0118 µM (EC50) and the Emax is 100%. Also, on CRF1R, the 50% effective concentration (EC50) was determined as 0.926 µM and the Emax amounted to 80%.

For `CC[C@H](C)[C@H](NC(=O)[C@@H](NC(=O)[C@H](C)NC(=O)[C@H](CC(C)C)NC(=O)[C@H](CC(C)C)NC(=O)[C@H](CC(C)C)NC(=O)[C@H](C)NC(=O)[C@H](CC(N)=O)NC(=O)[C@H](CC(N)=O)NC(=O)[C@H](C)NC(=O)[C@H](C)NC(=O)[C@H](CCC(N)=O)NC(=O)[C@H](CCC(N)=O)NC(=O)[C@H](CCCCN)NC(=O)[C@H](CCC(=O)O)NC(=O)[C@H](CCCCN)NC(=O)[C@H](CCC(=O)O)NC(=O)[C@H](CCC(N)=O)NC(=O)[C@H](CCCCN)NC(=O)[C@H](CCC(=O)O)NC(=O)[C@@H](NC(=O)[C@H](CCC(=O)O)NC(=O)[C@@H](NC(=O)[C@H](CCSC)NC(=O)[C@H](CCCCN)NC(=O)[C@H](CCCNC(=N)N)NC(=O)[C@H](CC(C)C)NC(=O)[C@H](CC(C)C)NC(=O)[C@H](Cc1ccccc1)NC(=O)[C@@H](NC(=O)[C@@H]1CCCN1C(=O)[C@H](CC(C)C)NC(=O)[C@H](CC(=O)O)NC(=O)[C@@H](NC(=O)[C@H](CO)NC(=O)[C@@H](NC(=O)[C@@H]1CCCN1C(=O)[C@@H]1CCCN1C(=O)CNC(=O)[C@@H]1CCC(=O)N1)[C@@H](C)CC)[C@@H](C)CC)[C@@H](C)CC)[C@@H](C)CC)[C@@H](C)CC)[C@@H](C)O)C(N)=O` [compound 298], the EC50 is 0.082 µM on CRF2R and not below 1 µM at CRF1R. The Emax on CRF2R came out at 98.8%; at CRF1R, 20.1%.

Turning to `CC[C@H](C)[C@H](NC(=O)[C@@H](NC(=O)[C@H](CC(=O)O)NC(=O)[C@H](CC(C)C)NC(=O)[C@H](CC(C)C)NC(=O)[C@H](CC(C)C)NC(=O)[C@H](CCCNC(=N)N)NC(=O)[C@H](CC(N)=O)NC(=O)[C@H](CC(N)=O)NC(=O)[C@H](C)NC(=O)[C@H](C)NC(=O)[C@H](CCC(N)=O)NC(=O)[C@H](CCC(N)=O)NC(=O)[C@H](CCCCN)NC(=O)[C@H](CCC(=O)O)NC(=O)[C@H](CCCCN)NC(=O)[C@H](CCC(=O)O)NC(=O)[C@H](CCC(N)=O)NC(=O)[C@H](CCCCN)NC(=O)[C@H](CCC(=O)O)NC(=O)[C@@H](NC(=O)[C@H](CCC(=O)O)NC(=O)[C@@H](NC(=O)[C@H](CCSC)NC(=O)[C@H](CCCCN)NC(=O)[C@H](CCCNC(=N)N)NC(=O)[C@H](CC(C)C)NC(=O)[C@H](CC(C)C)NC(=O)[C@H](Cc1ccc(O)cc1)NC(=O)[C@@H](NC(=O)[C@@H]1CCCN1C(=O)[C@H](CC(C)C)NC(=O)[C@H](CC(=O)O)NC(=O)[C@@H](NC(=O)[C@H](CO)NC(=O)[C@@H](NC(=O)[C@@H]1CCCN1C(=O)[C@@H]1CCCN1C(=O)CNC(=O)[C@@H]1CCC(=O)N1)[C@@H](C)CC)[C@@H](C)CC)[C@@H](C)O)[C@@H](C)CC)[C@@H](C)CC)[C@@H](C)O)C(N)=O` [compound 70], on CRF2R, a half-maximal response (EC50) required 0.0183 µM and the Emax turned out to be 82%. For the same molecule, on CRF1R, the EC50 is more than 0.1 µM and the Emax stood at 8%.

As to `CC[C@H](C)[C@H](NC(=O)[C@@H](NC(=O)[C@H](C)NC(=O)[C@H](CC(C)C)NC(=O)[C@H](CC(C)C)NC(=O)[C@H](CC(C)C)NC(=O)[C@H](C)NC(=O)[C@H](CC(N)=O)NC(=O)[C@H](CC(N)=O)NC(=O)[C@H](C)NC(=O)[C@H](C)NC(=O)[C@H](CCC(N)=O)NC(=O)[C@H](CCC(N)=O)NC(=O)[C@H](CCCCN)NC(=O)[C@H](CCC(=O)O)NC(=O)[C@H](CCCCN)NC(=O)[C@H](CCC(=O)O)NC(=O)[C@H](CCC(N)=O)NC(=O)[C@H](CCCCN)NC(=O)[C@H](CCC(=O)O)NC(=O)[C@@H](NC(=O)[C@H](CCC(=O)O)NC(=O)[C@@H](NC(=O)[C@H](CCSC)NC(=O)[C@H](CCCCN)NC(=O)[C@H](CCCNC(=N)N)NC(=O)[C@H](CC(C)C)NC(=O)[C@H](CC(C)C)NC(=O)[C@H](Cc1ccc(O)cc1)NC(=O)[C@@H](NC(=O)[C@@H]1CCCN1C(=O)[C@H](CC(C)C)NC(=O)[C@H](CC(=O)O)NC(=O)[C@@H](NC(=O)[C@H](CO)NC(=O)[C@@H](NC(=O)[C@@H]1CCCN1C(=O)[C@@H]1CCCN1C(=O)CNC(=O)[C@@H]1CCC(=O)N1)[C@@H](C)CC)[C@@H](C)CC)[C@@H](C)O)[C@@H](C)CC)[C@@H](C)CC)[C@@H](C)O)C(N)=O` [compound 233], the Emax on CRF2R worked out at 95%; at CRF1R, 11%.

In the case of `CC[C@H](C)[C@H](NC(=O)[C@@H](NC(=O)[C@H](CC(=O)O)NC(=O)[C@H](CC(C)C)NC(=O)[C@H](CC(C)C)NC(=O)[C@H](CC(C)C)NC(=O)[C@H](CCCNC(=N)N)NC(=O)[C@H](CC(N)=O)NC(=O)[C@H](CC(N)=O)NC(=O)[C@H](C)NC(=O)[C@H](C)NC(=O)[C@H](CCC(N)=O)NC(=O)[C@H](CCC(N)=O)NC(=O)[C@H](CCCCN)NC(=O)[C@H](CCC(=O)O)NC(=O)[C@H](CCCCN)NC(=O)[C@H](CCC(=O)O)NC(=O)[C@H](CCC(N)=O)NC(=O)[C@H](CCCCN)NC(=O)[C@H](CCC(=O)O)NC(=O)[C@@H](NC(=O)[C@H](CCC(=O)O)NC(=O)[C@@H](NC(=O)[C@H](CCSC)NC(=O)[C@H](CCCCN)NC(=O)[C@H](CCCNC(=N)N)NC(=O)[C@H](CC(C)C)NC(=O)[C@H](CC(C)C)NC(=O)[C@H](CCCCN)NC(=O)[C@@H](NC(=O)[C@@H]1CCCN1C(=O)[C@H](CC(C)C)NC(=O)[C@H](CC(=O)O)NC(=O)[C@@H](NC(=O)[C@H](CO)NC(=O)[C@@H](NC(=O)[C@@H]1CCCN1C(=O)[C@@H]1CCCN1C(=O)CNC(=O)[C@@H]1CCC(=O)N1)[C@@H](C)CC)[C@@H](C)CC)[C@@H](C)CC)[C@@H](C)CC)[C@@H](C)CC)[C@@H](C)O)C(N)=O` [compound 34], the Emax on CRF2R turned out to be 45%; at CRF1R, 11%.

`CC[C@H](C)[C@H](NC(=O)[C@H](CCC(=O)O)NC(=O)[C@@H](NC(=O)[C@H](CCSC)NC(=O)[C@H](CCCCN)NC(=O)[C@H](CCCNC(=N)N)NC(=O)[C@H](CC(C)C)NC(=O)[C@H](CC(C)C)NC(=O)[C@H](CCC(N)=O)NC(=O)[C@H](Cc1ccccc1)NC(=O)[C@@H]1CCCN1C(=O)[C@H](CC(C)C)NC(=O)[C@H](CC(=O)O)NC(=O)[C@@H](NC(=O)[C@H](CO)NC(=O)[C@@H](NC(=O)[C@@H]1CCCN1C(=O)[C@@H]1CCCN1C(=O)CNC(=O)[C@@H]1CCC(=O)N1)[C@@H](C)CC)[C@@H](C)CC)[C@@H](C)CC)C(=O)N[C@@H](CCC(=O)O)C(=O)N[C@@H](CCCCN)C(=O)N[C@@H](CCC(N)=O)C(=O)N[C@@H](CCC(=O)O)C(=O)N[C@@H](CCCCN)C(=O)N[C@@H](CCC(=O)O)C(=O)N[C@@H](CCCCN)C(=O)N[C@@H](CCC(N)=O)C(=O)N[C@@H](CCC(N)=O)C(=O)N[C@@H](C)C(=O)N[C@H](C(=O)N[C@@H](CC(N)=O)C(=O)N[C@@H](CC(N)=O)C(=O)N[C@@H](CCCNC(=N)N)C(=O)N[C@@H](CC(C)C)C(=O)N[C@@H](CC(C)C)C(=O)N[C@@H](CC(C)C)C(=O)N[C@@H](C)C(=O)N[C@H](C(=O)N[C@H](C(N)=O)C(C)C)[C@@H](C)O)[C@@H](C)O` [compound 12]: the Emax at CRF2R came out at 91%; at CRF1R, 73%.

Source of the values: patent publication US6936585B2, “Corticotropin releasing factor 2 receptor agonists” (priority 2002, dated 2005).
